The chains behind the UniProt entries cited, without tags or fusion partners.
UniProt P23219, whole entry: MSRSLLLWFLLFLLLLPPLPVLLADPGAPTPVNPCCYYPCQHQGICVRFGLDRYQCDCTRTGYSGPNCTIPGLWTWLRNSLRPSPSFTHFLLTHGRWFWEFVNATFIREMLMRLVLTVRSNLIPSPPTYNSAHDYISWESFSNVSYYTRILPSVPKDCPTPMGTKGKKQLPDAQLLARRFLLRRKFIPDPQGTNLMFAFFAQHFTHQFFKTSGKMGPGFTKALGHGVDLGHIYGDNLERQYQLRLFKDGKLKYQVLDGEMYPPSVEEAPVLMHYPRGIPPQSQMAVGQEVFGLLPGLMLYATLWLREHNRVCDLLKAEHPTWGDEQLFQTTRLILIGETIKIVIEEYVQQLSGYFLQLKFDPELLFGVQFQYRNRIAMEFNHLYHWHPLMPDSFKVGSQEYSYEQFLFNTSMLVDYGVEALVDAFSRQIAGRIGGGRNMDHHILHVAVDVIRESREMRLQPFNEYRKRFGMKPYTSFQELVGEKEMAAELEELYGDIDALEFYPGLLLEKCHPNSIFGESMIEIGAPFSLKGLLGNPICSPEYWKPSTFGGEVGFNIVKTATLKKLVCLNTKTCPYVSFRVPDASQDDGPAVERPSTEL

In BindingDB's records for doi:10.1073/pnas.96.13.7563 (St. Bartholomew's and The Royal London School of …, 1999):

Biological target: Prostaglandin G/H synthase 1 (Homo sapiens, UniProt P23219)

Compared with `CC(C(=O)O)c1ccc(-c2ccccc2)c(F)c1` (racemic) [2-(2-fluoro-[1,1'-biphenyl-4-yl])propanoic acid], `CN1C(C(=O)Nc2ccccn2)=C(O)c2ccccc2S1(=O)=O` [NSC_4856] is 32-fold higher in Ki: 0.075 µM for the first, 2.4 µM for the second.

`O=C(O)c1cccnc1Nc1cccc(C(F)(F)F)c1` [NSC_4488] was tested, and the Ki was over 10 µM.
